## Antibody variant affinities, Ab-14 light chain, assay 1

The measurements come from Engelhart et al. 2022 (doi:10.1038/s41597-022-01779-4) through the FLAb antibody collection.

Target peptide (SARS-CoV-2 spike, HR2 region): PDVDLGDISGINAS

Each scFv is VH, a (GGGGS)3 linker, VL, as in the parent Ab-14, and differs from it in the CDRs of the light chain only.
VH: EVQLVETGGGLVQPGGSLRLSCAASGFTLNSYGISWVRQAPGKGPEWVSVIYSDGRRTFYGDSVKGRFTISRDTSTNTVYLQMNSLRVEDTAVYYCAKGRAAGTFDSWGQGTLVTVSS
VL: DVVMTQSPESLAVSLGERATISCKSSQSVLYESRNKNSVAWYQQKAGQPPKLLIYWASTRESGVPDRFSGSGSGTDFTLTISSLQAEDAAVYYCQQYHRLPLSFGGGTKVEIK

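Phage display of a naive human antibody library on the peptide gave the parent. Variants in AAYL50 differ from the parent at up to three CDR positions; double and triple changes were sampled at random. In AlphaSeq, yeast of one mating type display the scFv and yeast of the other type display the target. Binding brings cells together so that they mate, and sequencing counts the barcode pairs among the diploids. Read counts were normalised to the haploid input and turned into Kd by a linear fit to BCL2-family pairs of known affinity, for each replicate. Mating was done three times.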

Substitutions are numbered in sequence along the VL above, starting at 1 (not Kabat).
Scale: log10 of Kd in nM, estimated from mating counts; low values are strong binders.
Replicates are averaged; those with no signal do not enter the mean.
An entry "no signal" has no value in the source: the pair was not observed among the diploids in any replicate. This suggests poor binding but is not conclusive.

changes	mean, log10 nM	replicates with signal
V39N Y97L R99P	3.87	2 of 3
S62I Q95C P101V	1.53	3 of 3
N35W S58Y Q96F	4.42	1 of 3
L30C T59D	1.48	3 of 3
K24G Y31P Q96R	1.41	3 of 3
V39E A40M S103K	no signal	0 of 3
Y31K S38Q Y97S	no signal	0 of 3
L30P A40W R60H	no signal	0 of 3
V29A Y31H Q95Y	1.21	3 of 3
L30G N37H Q95W	3.76	1 of 3
V29S A40W	no signal	0 of 3
N35V W56V E61W	no signal	0 of 3
S25K E32V V39C	no signal	0 of 3
K36N P101Q	0.53	3 of 3
S25I Q27C S38F	1.24	3 of 3
V39N W56D Q95G	0.41	3 of 3
S28F W56Q L100H	4.18	3 of 3
L30W N37G V39Y	4.41	2 of 3
S28E E61I Q96R	no signal	0 of 3
L30I N37V A57C	4.66	3 of 3
T59I Q95N R99E	2.76	3 of 3
S26P R99C P101M	no signal	0 of 3
S25P T59H S103H	3.43	1 of 3
S33T A57K T59W	2.12	3 of 3
K24C S28V N37T	no signal	0 of 3
L30P S62P S103A	0.57	3 of 3
S28G W56S P101I	4.21	1 of 3
V39F Y97D L102S	5.54	3 of 3
Q27N E32V	3.06	3 of 3
R34W V39G W56S	no signal	0 of 3
S26T Q27E S62T	0.75	3 of 3
L30N A40E S103Q	no signal	0 of 3
Q27D N37P A40E	no signal	0 of 3
R99E S103A	1.20	3 of 3
V29C N35W L102K	5.01	1 of 3
S28P L30K R60W	4.70	2 of 3
A40W T59R S62K	3.81	2 of 3
L30D K36Y R60G	4.94	1 of 3
S26A Q96W Y97V	no signal	0 of 3
K36V A57V L100W	3.13	3 of 3
R34L Q95H Q96D	2.44	3 of 3
S38K Q96E	4.49	1 of 3
V39P E61D Y97E	4.17	3 of 3
S38N Q95R Q96N	4.36	2 of 3
Q27Y S33F P101N	no signal	0 of 3
L30C W56F Q95F	no signal	0 of 3
Q27T T59I H98D	1.12	3 of 3
W56H Y97C L100R	3.82	3 of 3
A40C S58A Q95Y	no signal	0 of 3
L30A E32D S58V	0.91	3 of 3
S26D V29T	1.18	3 of 3
S25L A40H L100E	3.80	1 of 3
R34Y K36T A40W	no signal	0 of 3
Q27T N37A T59H	1.51	3 of 3

Extract of 9 entries:

changes	mean, log10 nM	replicates with signal
S62I Q95C P101V	1.53	3 of 3
S26A Q96W Y97V	no signal	0 of 3
K24G Y31P Q96R	1.41	3 of 3
S38N Q95R Q96N	4.36	2 of 3
V29A Y31H Q95Y	1.21	3 of 3
Q27D N37P A40E	no signal	0 of 3
S28F W56Q L100H	4.18	3 of 3
V39N W56D Q95G	0.41	3 of 3
A40C S58A Q95Y	no signal	0 of 3

Parent in this assay: reference entry 0.65, copy in this library 1.68.
Three control strains display no target. For library AAYL50, 18% of the pairings with them gave a signal, with a median of 4.19 and one signal in twenty below 2.99, so weak values seen in few replicates may be background.